A short description of this assay: Ratio of Ki with out GABA and with GABA.

Several values for one entry are separate records, joined by “and”; a condition that tells them apart may be missing. Equal values may be shown once.

For the compound `O=C(N[C@@H]1CCc2ccccc21)C(=O)c1c[nH]c2ccccc12`, the Ratio was 1.13 and 1.1.

For the origin of these results see ChEMBL document CHEMBL1134525, “Novel N-(arylalkyl)indol-3-ylglyoxylylamides targeted as ligands of the benzodiazepine receptor: synthesis, biological evaluation, and molecular modeling analysis of the structure-activity relationships” (J Med Chem, 2001).
